Data published in publication PMC4873368 (Cancer research, 2016).

Tested on: human T cells
Assay: Cytokine rescue of human T cell proliferation from trametinib
Type: cell-based
Conditions: aAPCs, 200 nM trametinib, 7 days; IL-2 20 U/ml, IL-7 2 ng/ml, IL-15 10 ng/ml, IL-21 100 ng/ml, IL-27 50 ng/ml, ALT-803 35.7 ng/ml

IL-2: human IL-2 cytokine
Rescue of human T cell proliferation in the presence of trametinib: able to individually rescue the proliferation
